Measured values published in US20080267942A1, “BENZAZEPIN-2(1H)-ONE DERIVATIVES” (Pfizer Limited, priority 2006, published 2008).

Chains of the proteins cited; added tags and fusions are not shown.
UniProt Q28044, whole entry: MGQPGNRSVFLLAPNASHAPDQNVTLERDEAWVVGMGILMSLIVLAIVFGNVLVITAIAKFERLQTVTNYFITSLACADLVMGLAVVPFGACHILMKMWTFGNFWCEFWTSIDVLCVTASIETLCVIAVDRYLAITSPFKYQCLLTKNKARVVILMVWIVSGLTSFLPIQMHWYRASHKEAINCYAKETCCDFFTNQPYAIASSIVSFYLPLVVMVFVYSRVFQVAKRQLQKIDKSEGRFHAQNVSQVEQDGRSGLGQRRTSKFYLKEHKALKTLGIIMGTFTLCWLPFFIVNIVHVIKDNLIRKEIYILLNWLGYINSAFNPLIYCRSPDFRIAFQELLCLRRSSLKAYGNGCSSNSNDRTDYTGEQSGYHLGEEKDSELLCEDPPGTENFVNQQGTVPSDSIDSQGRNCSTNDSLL
UniProt Q28997, whole entry: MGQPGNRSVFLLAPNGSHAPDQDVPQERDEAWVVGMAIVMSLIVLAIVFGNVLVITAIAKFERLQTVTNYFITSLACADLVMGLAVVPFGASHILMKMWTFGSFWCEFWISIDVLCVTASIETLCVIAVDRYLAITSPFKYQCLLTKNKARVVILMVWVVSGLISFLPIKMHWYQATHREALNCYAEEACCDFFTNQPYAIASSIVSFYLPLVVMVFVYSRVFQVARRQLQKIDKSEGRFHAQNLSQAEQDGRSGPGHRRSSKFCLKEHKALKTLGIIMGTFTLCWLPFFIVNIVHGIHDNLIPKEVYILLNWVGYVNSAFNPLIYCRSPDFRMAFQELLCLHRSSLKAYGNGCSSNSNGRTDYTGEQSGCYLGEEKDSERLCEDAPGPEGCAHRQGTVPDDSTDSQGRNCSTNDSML

Columns and labels:
[1] = target: bovine beta-2 adrenoceptor (Bos taurus, UniProt Q28044); assay: cAMP assay in CHO cells transfected with the bovine beta-2 adrenoceptor (DiscoveRx Hit Hunter cAMP II); conditions: read-out: Bovine EC50, CHO cells transfected with bovine beta-2 adrenoceptor, 30 minutes incubation with compound, tested form: pair of enantiomers (racemate of the 4e)
Method: (§1) CHO cells transfected with the bovine or porcine beta-2 adrenceptors were maintained in culture in DMEM/HAMS F12+10% FBS+2 mM glutamine+500 μg/ml geneticin (for the porcine receptor the medium was supplement with 1.5 mM HEPES) at 37° C. with a 5% CO2 atmosphere.
(§2) Cells were plated into 96 well viewplates in medium and incubated overnight at 37° C. with a 5% CO2 atmosphere. The cells were pre-incubated with 0.5 mM IBMX in PBS for 30 minutes prior to incubation with increasing concentrations of experimental compound (5×10^−12 to 10^−5M) for 30 minutes at 37° C. with a 5% CO2 atmosphere. At the end of the incubation time the compound was removed and the cells assayed for cAMP using the DiscoveRx Hit Hunter cAMP II™ assay kit.
(§3) Duplicate samples were run for each experimental compound and the data generated was analysed using EC50 analysis software in Graphpad Prism.

[2] = target: porcine beta-2 adrenoceptor (Sus scrofa, UniProt Q28997); assay: cAMP assay in CHO cells transfected with the porcine beta-2 adrenoceptor (DiscoveRx Hit Hunter cAMP II); conditions: read-out: Porcine EC50, CHO cells transfected with porcine beta-2 adrenoceptor, 30 minutes incubation with compound, tested form: pair of enantiomers (racemate of the 4e)
Method: as §1, §2, §3

Question: For `CC(CCc1c[nH]c2ccccc12)N[C@@H]1CCn2c(=O)[nH]c3cccc(c32)[C@H]1O` (single isomer, unassigned), which EC50 [1] is on record?
Answer: The EC50 was 2.1 nM.

Question: And the EC50 [2]?
Answer: Its EC50 is 3 nM.
